Consider twelve molecules from article PMC6692071 (Journal of medicinal chemistry, 2018).

Protein sequences, listed by entry. Tags and fused reporters are not part of them. Lines headed by an entry give the natural chain unless they say otherwise; changes in a name come on top.
UniProt P41145: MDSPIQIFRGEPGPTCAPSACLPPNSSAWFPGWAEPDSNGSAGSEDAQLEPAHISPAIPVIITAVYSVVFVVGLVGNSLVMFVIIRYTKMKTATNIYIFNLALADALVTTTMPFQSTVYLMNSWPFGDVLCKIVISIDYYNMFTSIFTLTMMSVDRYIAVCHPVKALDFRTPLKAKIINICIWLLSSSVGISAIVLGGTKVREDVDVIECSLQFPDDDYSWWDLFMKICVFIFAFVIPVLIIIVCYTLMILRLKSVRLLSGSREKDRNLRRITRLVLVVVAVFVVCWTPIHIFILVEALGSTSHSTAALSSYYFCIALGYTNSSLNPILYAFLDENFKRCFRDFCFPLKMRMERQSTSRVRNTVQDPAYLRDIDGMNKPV
UniProt P35372, whole entry: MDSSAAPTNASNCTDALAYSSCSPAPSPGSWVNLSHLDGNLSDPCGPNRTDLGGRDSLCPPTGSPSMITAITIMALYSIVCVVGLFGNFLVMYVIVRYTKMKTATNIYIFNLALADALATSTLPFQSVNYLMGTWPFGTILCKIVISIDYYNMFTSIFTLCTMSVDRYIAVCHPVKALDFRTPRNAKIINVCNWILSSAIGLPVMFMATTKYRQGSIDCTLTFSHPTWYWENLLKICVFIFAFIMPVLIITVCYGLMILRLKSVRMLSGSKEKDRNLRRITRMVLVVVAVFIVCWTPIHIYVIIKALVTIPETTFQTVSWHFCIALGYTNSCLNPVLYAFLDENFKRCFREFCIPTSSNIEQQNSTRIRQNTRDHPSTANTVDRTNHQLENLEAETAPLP

Assay [1] deals with T1, human κ opioid receptor (Homo sapiens, UniProt P41145). The following applies: mean ± SEM; cited from earlier work.
Assay [2] deals with T2, human μ opioid receptor (Homo sapiens, UniProt P35372). The assay is described as follows: biochemical.
Assay [3] deals with T3, human δ opioid receptor (Homo sapiens, UniProt P41143). Description: biochemical.
Assay [4] addresses T1, human κ opioid receptor. Description: biochemical. The following applies: for Kb: Ke κ, U69,593; for δ/κ: ratio of Ke values.
Assay [5] addresses T2, human μ opioid receptor. The following applies: mean ± SEM; cited from earlier work.
Assay [6] concerns the target T3, human δ opioid receptor. The following applies: mean ± SEM; cited from earlier work.

Regarding `CC1CCN(C[C@@H](NC(=O)[C@H]2Cc3ccc(O)cc3CN2)C(C)C)CC1` [4-MePDTic (43)], in assay [1], the “Ke κ, U69,593” value is recorded as 0.37 ± 0.09 nM.

In turn, `CC(C)[C@H](CC1CCCCC1)NC(=O)[C@@H]1Cc2ccc(O)cc2CN1` [Compound 5, (3S)-N-[(1S)-1-(Cyclohexylmethyl)-2-methylpropyl]-7-hydroxy-1,2,3,4-tetrahydroisoquinoline-3-carboxamide] showed a Kb in assay [2] above 3000 nM. Molecule `O=C(NCCC1CCCCC1)[C@H]1Cc2ccc(O)cc2CN1` [Compound 6, (3R)-N-(2-Cyclohexylethyl)-7-hydroxy-1,2,3,4-tetrahydroisoquinoline-3-carboxamide] displayed a Kb in assay [3] above 3000 nM.

As for `O=C(N[C@H](CC1CCCCC1)c1ccccc1)[C@H]1Cc2ccc(O)cc2CN1` [Compound 7, (3R)-N-[(1R)-2-Cyclohexyl-1-phenylethyl]-7-hydroxy-1,2,3,4-tetrahydroisoquinoline-3-carboxamide], the Kb in assay [3] is above 3000 nM. Same read-out and setting: under `O=C(N[C@H](CC1CCCCC1)C1CC1)[C@H]1Cc2ccc(O)cc2CN1` [Compound 8, (3R)-N-[(1R)-2-Cyclohexyl-1-cyclopropylethyl]-7-hydroxy-1,2,3,4-tetrahydroisoquinoline-3-carboxamide] stands above 3000 nM. In assay [4], `CC(C)[C@@H](CC1CCCCC1)NC(=O)[C@H]1Cc2ccc(C(N)=O)cc2CN1` [Compound 9, (3R)-N^3-[(1R)-1-(Cyclohexylmethyl)-2-methylpropyl]-1,2,3,4-tetrahydroisoquinoline-3,7-dicarboxamide] registered a Kb of 0.058 to 0.64 nM. The same measure, in the same setting: then `CC(C)[C@@H](CC1CCCC1)NC(=O)[C@H]1Cc2ccc(O)cc2CN1` [Compound 13, (3R)-N-[(1R)-1-(Cyclopentylmethyl)-2-methylpropyl]-7-hydroxy-1,2,3,4-tetrahydroisoquinoline-3-carboxamide], with 0.058 to 0.64 nM; and `CC(C)[C@@H](CC1CCCCCC1)NC(=O)[C@H]1Cc2ccc(O)cc2CN1` [Compound 14, (3R)-N-[(1R)-1-(Cycloheptylmethyl)-2-methylpropyl]-7-hydroxy-1,2,3,4-tetrahydroisoquinoline-3-carboxamide], with 0.058 to 0.64 nM. With `CC1CCC(C[C@@H](NC(=O)[C@H]2Cc3ccc(O)cc3CN2)C(C)C)CC1` (stereo partly drawn) [Compound 18, (3R)-7-Hydroxy-N-{(1R)-2-methyl-1-[(4-methylcyclohexyl)-methyl]propyl}–1,2,3,4-tetrahydroisoquinoline-3-carboxamide], the Kb in assay [3] is above 3000 nM. As for `CC(C)[C@@H](CC1CCCCC1)NC(=O)[C@H]1Cc2ccc(O)cc2CN1C` [Compound 19, (3R)-N-[(1R)-1-(Cyclohexylmethyl)-2-methylpropyl]-7-hydroxy-2-methyl-1,2,3,4-tetrahydroisoquinoline-3-carboxamide], in assay [4], the “fold less potent κ opioid receptor antagonist than 1” value was determined as 30 fold and the δ/κ is given as above 709. For the molecule `CC(C)[C@@H](CC1CCCC1)NC(=O)[C@@]1(C)Cc2ccc(O)cc2CN1` [Compound 20, (3R)-N-[(1R)-1-(Cyclopentylmethyl)-2-methylpropyl]-7-hydroxy-3-methyl-1,2,3,4-tetrahydroisoquinoline-3-carboxamide], in assay [4], the δ/κ is above 484. Further, in assay [4] (relative to 13), the “fold less potent at the κ opioid receptor than parent compound 13” value is on record as 107 fold. For the molecule `CC(C)[C@@H](CN1CC[C@@](C)(c2cccc(O)c2)[C@@H](C)C1)NC(=O)[C@H]1Cc2ccc(O)cc2CN1` [JDTic, (3R)-1,2,3,4-tetrahydro-7-hydroxy-N-[(1S)-1-[[(3R,4R)-4-(3-hydroxy-phenyl)-3,4-dimethyl-1-piperidinyl]methyl]-2-methylpropyl]-3-iso-quinolinecarboxamide], the “Ke μ, DAMGO” value in assay [5] was 25 ± 4 nM. Moreover, the “Ke δ, DPDPE” value in assay [6] is given as 74 ± 2 nM.
